Laboratory results taken from PMC10289903 (Investigational New Drugs, 2023).

Test system: locally advanced or metastatic solid tumors
Test: Preliminary antitumor activity (ORR, DCR, SD, PFS; RECIST v1.1)
Assay type: in vivo, human
Settings: bid 1: 125 mg bid 5/9 (n=6)

## C=CCn1c(=O)c2cnc(Nc3ccc(N4CCN(C)CC4)cc3)nc2n1-c1cccc(C(C)(C)O)n1 [adavosertib, Adavosertib]
  DCR, CP + PR + SD/n (%): 4 (66.7) CP + PR + SD/n (%)
  Median PFS, months (95% CI): 3.7 (1.5–5.5) months
  ORR, CP + PR/n (%): 0^a CP + PR/n (%)

Marks after values point to notes of the source that are not given here.
